Data on 41 compounds can be found in US7759499B2, “Compounds as inhibitors of hepatitis C virus NS3 serine protease” (Schering Corporation, priority 2004, dated 2010).

Sequences of proteins named here, by UniProt entry; tags and fusion partners are left off. Residues count along the entry.
UniProt P27958, 1027-1657: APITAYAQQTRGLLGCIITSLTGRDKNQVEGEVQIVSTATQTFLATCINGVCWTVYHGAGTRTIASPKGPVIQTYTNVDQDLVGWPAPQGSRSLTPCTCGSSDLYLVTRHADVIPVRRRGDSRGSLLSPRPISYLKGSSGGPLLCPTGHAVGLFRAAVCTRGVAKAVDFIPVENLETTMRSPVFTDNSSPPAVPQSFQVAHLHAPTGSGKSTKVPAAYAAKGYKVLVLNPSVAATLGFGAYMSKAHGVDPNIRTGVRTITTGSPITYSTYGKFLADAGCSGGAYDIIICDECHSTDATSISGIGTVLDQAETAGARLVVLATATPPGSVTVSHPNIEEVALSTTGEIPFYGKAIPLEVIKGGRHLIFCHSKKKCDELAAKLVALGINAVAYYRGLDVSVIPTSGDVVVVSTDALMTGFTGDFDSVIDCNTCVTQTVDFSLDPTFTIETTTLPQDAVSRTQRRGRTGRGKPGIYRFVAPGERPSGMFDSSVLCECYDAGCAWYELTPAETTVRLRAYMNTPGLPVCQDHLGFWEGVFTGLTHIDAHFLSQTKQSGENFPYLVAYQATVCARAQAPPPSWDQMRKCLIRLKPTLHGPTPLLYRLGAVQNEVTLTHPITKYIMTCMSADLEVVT
UniProt P27958, 1658-1711: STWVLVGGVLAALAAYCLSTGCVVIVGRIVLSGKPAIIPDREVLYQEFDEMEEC

pKi: −log10 of the molar value.

The target of one assay is Recombinant heterodimeric HCV NS3/NS4A protease (strain 1a) (Hepatitis C virus genotype 1a, UniProt P27958). Put plainly: Spectrophotometric assay for HCV protease inhibitory activity. The note with it: Table 1, range. The assay is classed as biochemical.
A word on the pKi: it is −log10 of the Ki, conventionally taken in molar units. Take `C=CCNC(=O)C(=O)C(CCCC)NC(=O)[C@@H]1[C@@H]2[C@H](CN1C(=O)[C@@H](NC(=O)N[C@H](CN(C)S(=O)(=O)N(C)C1CC1)C(C)(C)C)C(C)(C)C)C2(C)C` (some centres unmarked) [Compound 10096]: the pKi is no less than 7.12. In the case of `C=CCNC(=O)C(=O)C(CCC)NC(=O)[C@@H]1[C@@H]2[C@H](CN1C(=O)[C@@H](NC(=O)N[C@H](CNS(=O)(=O)N(C)C)C(C)C)C1CCCCC1)C2(C)C` (some centres unmarked) [Compound 10035], the pKi is 6.60 to 7.12. On the same count and under the same terms, with `C=CCNC(=O)C(=O)C(CCC)NC(=O)[C@@H]1[C@@H]2[C@H](CN1C(=O)[C@@H](NC(=O)N[C@H](CN(C)S(=O)(=O)N(C)C)C(C)(C)C)C1CCCCC1)C2(C)C` (some centres unmarked) [Compound 10002] the figure was no less than 7.12; with `CN(C[C@@H](NC(=O)N[C@H](C(=O)N1C[C@H]2[C@@H]([C@H]1C(=O)NC(CC1CCC1)C(=O)C(N)=O)C2(C)C)C(C)(C)C)C(C)(C)C)S(=O)(=O)N(C)C(=O)OCc1ccccc1` (some centres unmarked) [Compound 10032], no less than 7.12.

Still in this assay, the particulars now being: Table 2, range.
As to `C=CCNC(=O)C(=O)C(CCCC)NC(=O)[C@@H]1[C@@H]2[C@H](CN1C(=O)[C@@H](NC(=O)N[C@H](CN(C)S(=O)(=O)c1ccccn1)C(C)(C)C)C1CCCCC1)C2(C)C` (some centres unmarked) [Compound 11277], the pKi is no less than 7.12. Consider `C=CCNC(=O)C(=O)C(CCCC)NC(=O)[C@@H]1[C@@H]2[C@H](CN1C(=O)[C@@H](NC(=O)N[C@H](CN(C)S(=O)(=O)C(C)(C)C)C(C)(C)C)C(C)(C)C)C2(C)C` (some centres unmarked) [Compound 11213], for which the negative logarithm of the Ki (pKi) is 6.60 to 7.12. For `C=CCNC(=O)C(=O)C(CCC)NC(=O)[C@@H]1[C@@H]2[C@H](CN1C(=O)[C@@H](NC(=O)N[C@H](CN(C)S(=O)(=O)C(F)(F)F)C(C)(C)C)C(C)(C)C)C2(C)C` (some centres unmarked) [Compound 11091], the pKi was no less than 7.12.

Consider `CC(C)N(C[C@@H](NC(=O)N[C@H](C(=O)N1C[C@H]2[C@@H]([C@H]1C(=O)NC(CC1CCC1)C(=O)C(N)=O)C2(C)C)C(C)(C)C)C(C)(C)C)S(C)(=O)=O` (some centres unmarked) [Compound 11183], for which the pKi is no less than 7.12. In the case of `C=CCNC(=O)C(=O)C(CCC)NC(=O)[C@@H]1[C@@H]2[C@H](CN1C(=O)[C@@H](NC(=O)N[C@@H](CN(C)S(C)(=O)=O)C(C)C)C(C)(C)C)C2(C)C` (some centres unmarked) [Compound 11382], the negative-log Ki (pKi) is no less than 7.12. The same measure, in the same setting: with `CCCC(NC(=O)[C@@H]1[C@@H]2[C@H](CN1C(=O)[C@@H](NC(=O)N[C@H](CN(C)S(=O)(=O)C(C)(C)C)C(C)(C)C)C(C)(C)C)C2(C)C)C(=O)C(=O)NCC` (some centres unmarked) [Compound 11216] the figure was 6.60 to 7.12; with `C=CCNC(=O)C(=O)C(CC1CCC1)NC(=O)[C@@H]1[C@@H]2[C@H](CN1C(=O)[C@@H](NC(=O)N[C@H](CN(C)S(C)(=O)=O)C(C)(C)C)C1(C)CCCCC1)C2(C)C` (some centres unmarked) [Compound 11137], no less than 7.12; with `C=CCNC(=O)C(=O)C(CCCC)NC(=O)[C@@H]1[C@@H]2[C@H](CN1C(=O)[C@@H](NC(=O)N[C@H](CN(C)S(=O)(=O)C(C)C)C(C)(C)C)C(C)(C)C)C2(C)C` (some centres unmarked) [Compound 11103], no less than 7.12.

With `C=CCNC(=O)C(=O)C(CC1CCC1)NC(=O)[C@@H]1[C@@H]2[C@H](CN1C(=O)[C@@H](NC(=O)NC[C@@H](N(C)S(=O)(=O)c1ccccc1)C(C)(C)C)C(C)(C)C)C2(C)C` (some centres unmarked) [Compound 11312], the negative-log Ki (pKi) was less than 6.60.

For the compound `C=CCNC(=O)C(=O)C(CC1CC1)NC(=O)[C@@H]1[C@@H]2[C@H](CN1C(=O)[C@@H](NC(=O)N[C@H](CN(C)S(=O)(=O)c1cccs1)C(C)(C)C)C(C)(C)C)C2(C)C` (some centres unmarked) [Compound 11003], the pKi is no less than 7.12. Same read-out and setting: to `C=CCNC(=O)C(=O)C(CC1CC1)NC(=O)[C@@H]1[C@@H]2[C@H](CN1C(=O)[C@@H](NC(=O)N[C@H](CN(C)S(=O)(=O)c1cc(Cl)ccc1OC)C(C)(C)C)C(C)(C)C)C2(C)C` (some centres unmarked) [Compound 11336] belongs no less than 7.12; to `CC(C)(C)[C@H](NC(=O)NC1CCCN(S(=O)(=O)c2cccs2)C1)C(=O)N1C[C@H]2[C@@H]([C@H]1C(=O)NC(CC1CCC1)C(=O)C(N)=O)C2(C)C` (some centres unmarked) [Compound 11023], 6.60 to 7.12. Same read-out and setting: with `C#CCCC(NC(=O)[C@@H]1[C@@H]2[C@H](CN1C(=O)[C@@H](NC(=O)N[C@H](CN(C)S(C)(=O)=O)C(C)(C)C)C1Cc3ccccc3C1)C2(C)C)C(=O)C(=O)NCCC` (some centres unmarked) [Compound 11210] the figure was no less than 7.12; with `CC(C)[C@@H](CN(CC1CC1)S(=O)(=O)c1ccccc1)NC(=O)N[C@H](C(=O)N1C[C@H]2[C@@H]([C@H]1C(=O)NC(CC1CC1)C(=O)C(N)=O)C2(C)C)C(C)(C)C` (some centres unmarked) [Compound 11010], no less than 7.12. Same read-out and setting: to `C=CCNC(=O)C(=O)C(CC1CCC1)NC(=O)[C@@H]1[C@@H]2[C@H](CN1C(=O)[C@@H](NC(=O)N[C@H](CN(C)S(=O)(=O)c1ccccc1)C(C)(C)C)C(C)(C)C)C2(C)C` (some centres unmarked) [Compound 11364] belongs 6.60 to 7.12. With `C=CCNC(=O)C(=O)C(CCCC)NC(=O)[C@@H]1[C@@H]2[C@H](CN1C(=O)[C@@H](NC(=O)N[C@H](CN(C)S(=O)(=O)c1ccc(Br)s1)C(C)(C)C)C(C)(C)C)C2(C)C` (some centres unmarked) [Compound 11338], the negative logarithm of the Ki (pKi) is no less than 7.12. Same read-out and setting: to `C=CCNC(=O)C(=O)C(CCCC)NC(=O)[C@@H]1[C@@H]2[C@H](CN1C(=O)[C@@H](NC(=O)N[C@H](CN(C)S(=O)(=O)c1sc(C)nc1C)C1CCCCC1)C1CCCCC1)C2(C)C` (some centres unmarked) [Compound 11242] belongs no less than 7.12; to `C=CCNC(=O)C(=O)C(CC1CCC1)NC(=O)[C@@H]1[C@@H]2[C@H](CN1C(=O)[C@@H](NC(=O)N[C@H](CN(C)S(=O)(=O)c1cccs1)C(C)(C)C)C1CCCCC1)C2(C)C` (some centres unmarked) [Compound 11292], no less than 7.12; to `C=CCNC(=O)C(=O)C(CCCC)NC(=O)[C@@H]1[C@@H]2[C@H](CN1C(=O)[C@@H](NC(=O)N[C@H](CN(C)S(=O)(=O)C1CC1)CC(C)(C)C)C(C)(C)C)C2(C)C` (some centres unmarked) [Compound 11096], 6.60 to 7.12.

For `CCCNC(=O)C(=O)C(CCC)NC(=O)[C@@H]1[C@@H]2[C@H](CN1C(=O)[C@@H](NC(=O)N[C@H](CN(C)S(=O)(=O)c1cccs1)[C@@H](C)CC)C(C)(C)C)C2(C)C` (some centres unmarked) [Compound 11084], the pKi is less than 6.60. Regarding `CCCCC(NC(=O)[C@@H]1[C@@H]2[C@H](CN1C(=O)[C@@H](NC(=O)N[C@H](CN(C)S(C)(=O)=O)C(C)(C)C)C1Cc3ccccc3C1)C2(C)C)C(=O)C(=O)NCC` (some centres unmarked) [Compound 11190], the pKi is no less than 7.12.

Regarding `CC[C@H](C)[C@@H](CN(C)S(=O)(=O)c1cccs1)NC(=O)N[C@H](C(=O)N1C[C@H]2[C@@H]([C@H]1C(=O)NC(CC1CCC1)C(=O)C(N)=O)C2(C)C)C(C)(C)C` (some centres unmarked) [Compound 11082], the negative-log Ki (pKi) was no less than 7.12. Still for that read-out and setting: to `CN(C[C@@H](NC(=O)N[C@H](C(=O)N1C[C@H]2[C@@H]([C@H]1C(=O)NC(CC1CCC1)C(=O)C(N)=O)C2(C)C)C1CCCCC1)C(C)(C)C)S(=O)(=O)c1ccccc1` (some centres unmarked) [Compound 11053] belongs no less than 7.12; to `CCCC(NC(=O)[C@@H]1[C@@H]2[C@H](CN1C(=O)[C@@H](NC(=O)N[C@H](CN(C)S(=O)(=O)c1cccs1)C(C)(C)C)C(C)(C)C)C2(C)C)C(=O)C(N)=O` (some centres unmarked) [Compound 11258], no less than 7.12; to `Cc1nc(C)c(S(=O)(=O)N(C)C[C@@H](NC(=O)N[C@H](C(=O)N2C[C@H]3[C@@H]([C@H]2C(=O)NC(CC2CCC2)C(=O)C(N)=O)C3(C)C)C(C)(C)C)C2CCCCC2)s1` (some centres unmarked) [Compound 11162], no less than 7.12. On the same count and under the same terms, to `C=CCNC(=O)C(=O)C(CCCC)NC(=O)[C@@H]1[C@@H]2[C@H](CN1C(=O)[C@@H](NC(=O)N[C@H](CN(C)S(=O)(=O)c1cccc(F)c1)C(C)(C)C)C(C)(C)C)C2(C)C` (some centres unmarked) [Compound 11344] belongs no less than 7.12; to `C=CCNC(=O)C(=O)C(CC1CC1)NC(=O)[C@@H]1[C@@H]2[C@H](CN1C(=O)[C@@H](NC(=O)N[C@H](CN(C)S(C)(=O)=O)C(C)(C)C)C(C)(C)C)C2(C)C` (some centres unmarked) [Compound 11042], no less than 7.12; to `CCCC(NC(=O)[C@@H]1C[C@@H](OC(C)(C)C)CN1C(=O)[C@@H](NC(=O)N[C@H](CN(C)S(C)(=O)=O)C(C)(C)C)C1CCCCC1)C(=O)C(N)=O` (some centres unmarked) [Compound 11196], no less than 7.12.

On to `C=CCNC(=O)C(=O)C(CCC(F)(F)F)NC(=O)[C@@H]1[C@@H]2[C@H](CN1C(=O)[C@@H](NC(=O)N[C@H](CN(C)S(=O)(=O)c1cccs1)C(C)(C)C)C1CCCC1)C2(C)C` (some centres unmarked) [Compound 11226], for which the pKi was no less than 7.12.

Staying with this assay, now noted: Table 4, range.
With `CC(C)[C@@H](CNC(=O)c1ccccc1)NC(=O)N[C@H](C(=O)N1C[C@H]2[C@@H]([C@H]1C(=O)NC(CC1CCC1)C(=O)C(N)=O)C2(C)C)C(C)(C)C` (some centres unmarked) [Compound 13009], the pKi was no less than 7.12.

The assay is the same for the next values; noted with them: Table 5, range.
On to `CCCC(NC(=O)[C@@H]1[C@@H]2[C@H](CN1C(=O)[C@@H](NC(=O)N[C@H](CN(C)C(=O)OC(C)(C)C)CC(C)(C)C)C(C)(C)C)C2(C)C)C(=O)C(N)=O` (some centres unmarked) [Compound 14048], for which the negative logarithm of the Ki (pKi) is less than 6.60.

As to `C#CCCC(NC(=O)[C@@H]1[C@@H]2[C@H](CN1C(=O)[C@@H](NC(=O)N[C@H](CN(C)C(=O)OC(C)(C)C)C(C)(C)C)C(C)(C)C)C2(C)C)C(=O)C(N)=O` (some centres unmarked) [Compound 14053], the negative-log Ki (pKi) was less than 6.60. The same measure, in the same setting: to `CN(C[C@@H](NC(=O)N[C@H](C(=O)N1C[C@H]2[C@@H]([C@H]1C(=O)NC(CC1CC1)C(=O)C(N)=O)C2(C)C)C(C)(C)C)C1CCCCC1)C(=O)OC(C)(C)C` (some centres unmarked) [Compound 14049] belongs less than 6.60. The same measure, in the same setting: to `C=CCNC(=O)C(=O)C(CC1CC1)NC(=O)[C@@H]1[C@@H]2[C@H](CN1C(=O)[C@@H](NC(=O)N[C@H](CNC(=O)OC)C(C)C)C(C)(C)C)C2(C)C` (some centres unmarked) [Compound 14022] belongs no less than 7.12.

Staying with this assay, now noted: Table 5A, range.
With `CCCCC(NC(=O)[C@@H]1[C@@H]2[C@H](CN1C(=O)[C@@H](NC(=O)N[C@H](CN(C)S(=O)(=O)CC)C1(C)CCCCC1)C1Cc3ccccc3C1)C2(C)C)C(=O)C(=O)NC1CC1` (some centres unmarked) [Compound 11424], the pKi was no less than 7.12.

As for `C=CCNC(=O)C(=O)C(CC1CC1)NC(=O)[C@@H]1[C@@H]2[C@H](CN1C(=O)[C@@H](NC(=O)N[C@H](CN(C)S(=O)(=O)c1cccnc1)C(C)(C)C)C(C)(C)C)C2(C)C` (some centres unmarked) [Compound 11407], the pKi is no less than 7.12. On the same count and under the same terms, with `CCCCC(NC(=O)[C@@H]1[C@@H]2[C@H](CN1C(=O)[C@@H](NC(=O)N[C@H](CN(CC)S(=O)(=O)CC)C(C)(C)C)C1Cc3ccccc3C1)C2(C)C)C(=O)C(=O)NC1CC1` (some centres unmarked) [Compound 11404] the figure was no less than 7.12.
